Test results as given in PubChem BioAssay (NCI).
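Grown in 96-well plates, cells were treated for 48 hours with each compound at five concentrations. Insufficient inhibition: endpoint recorded as highest concentration tested. TGI: concentration producing complete growth inhibition.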

Experiments:
Test in all cases: DTP human tumour cell line panel, 48 h
SK-MEL-28 melanoma = test system: SK-MEL-28 melanoma
HT29 colon = test system: HT29 colon
K-562 leukemia = test system: K-562 leukemia
HCC-2998 colon = test system: HCC-2998 colon
SK-MEL-5 melanoma = test system: SK-MEL-5 melanoma
CAKI-1 renal = test system: CAKI-1 renal
OVCAR-3 ovarian = test system: OVCAR-3 ovarian
SN12C renal = test system: SN12C renal
HOP-62 NSCLC = test system: HOP-62 NSCLC
NCI/ADR-RES ovarian = test system: NCI/ADR-RES ovarian
NCI-H23 lung = test system: NCI-H23 lung
KM12 colon = test system: KM12 colon
SNB-75 CNS = test system: SNB-75 CNS
DU-145 prostate = test system: DU-145 prostate
SF-295 CNS = test system: SF-295 CNS
A549 NSCLC = test system: A549 NSCLC
SF-268 CNS = test system: SF-268 CNS
MDA-MB-231 breast = test system: MDA-MB-231 breast
TK-10 renal = test system: TK-10 renal
U251 CNS = test system: U251 CNS
HS 578T breast = test system: HS 578T breast
SF-539 CNS = test system: SF-539 CNS
786-0 renal = test system: 786-0 renal
SW-620 colon = test system: SW-620 colon
HL-60(TB) leukemia = test system: HL-60(TB) leukemia
UO-31 renal = test system: UO-31 renal
OVCAR-5 ovarian = test system: OVCAR-5 ovarian
EKVX NSCLC = test system: EKVX NSCLC
SR leukemia = test system: SR leukemia
UACC-257 melanoma = test system: UACC-257 melanoma
OVCAR-8 ovarian = test system: OVCAR-8 ovarian
COLO 205 colon = test system: COLO 205 colon
RXF 393 renal = test system: RXF 393 renal
SNB-19 CNS = test system: SNB-19 CNS
MDA-MB-435 = test system: MDA-MB-435
MDA-N = test system: MDA-N
HCT-15 colon = test system: HCT-15 colon
NCI-H522 lung = test system: NCI-H522 lung
MALME-3M melanoma = test system: MALME-3M melanoma
CCRF-CEM leukemia = test system: CCRF-CEM leukemia
M14 melanoma = test system: M14 melanoma
ACHN renal = test system: ACHN renal
LOX IMVI melanoma = test system: LOX IMVI melanoma
HCT-116 colon = test system: HCT-116 colon
NCI-H460 lung = test system: NCI-H460 lung
NCI-H226 lung = test system: NCI-H226 lung
NCI-H322M lung = test system: NCI-H322M lung
RPMI-8226 leukemia = test system: RPMI-8226 leukemia
IGROV1 ovarian = test system: IGROV1 ovarian
MCF7 breast = test system: MCF7 breast

Measured: TGI

CNC(/N=C1\N(C)C(C)(C)P(=O)(O)N1C)NC
> 100 µM: SK-MEL-28 melanoma | HT29 colon | K-562 leukemia | HCC-2998 colon | SK-MEL-5 melanoma | CAKI-1 renal | OVCAR-3 ovarian | SN12C renal | HOP-62 NSCLC | NCI/ADR-RES ovarian | NCI-H23 lung | KM12 colon | SNB-75 CNS | DU-145 prostate | SF-295 CNS | A549 NSCLC | SF-268 CNS | MDA-MB-231 breast | TK-10 renal | U251 CNS | HS 578T breast | SF-539 CNS | 786-0 renal | SW-620 colon | HL-60(TB) leukemia | UO-31 renal | OVCAR-5 ovarian | EKVX NSCLC | SR leukemia | UACC-257 melanoma | OVCAR-8 ovarian | COLO 205 colon | RXF 393 renal | SNB-19 CNS | MDA-MB-435 | MDA-N | HCT-15 colon | NCI-H522 lung | MALME-3M melanoma | CCRF-CEM leukemia | M14 melanoma | ACHN renal | LOX IMVI melanoma | HCT-116 colon | NCI-H460 lung | NCI-H226 lung | NCI-H322M lung | RPMI-8226 leukemia | IGROV1 ovarian | MCF7 breast
